According to article PMC7235778, “Methylxanthines Inhibit Primary Amine Oxidase and Monoamine Oxidase Activities of Human Adipose Tissue” (Medicines, 2020):

Molecular target: T1, primary amine oxidase (PrAO; SSAO/VAP-1) (Homo sapiens, UniProt Q16853)
T1 sequence (Q16853 1-763): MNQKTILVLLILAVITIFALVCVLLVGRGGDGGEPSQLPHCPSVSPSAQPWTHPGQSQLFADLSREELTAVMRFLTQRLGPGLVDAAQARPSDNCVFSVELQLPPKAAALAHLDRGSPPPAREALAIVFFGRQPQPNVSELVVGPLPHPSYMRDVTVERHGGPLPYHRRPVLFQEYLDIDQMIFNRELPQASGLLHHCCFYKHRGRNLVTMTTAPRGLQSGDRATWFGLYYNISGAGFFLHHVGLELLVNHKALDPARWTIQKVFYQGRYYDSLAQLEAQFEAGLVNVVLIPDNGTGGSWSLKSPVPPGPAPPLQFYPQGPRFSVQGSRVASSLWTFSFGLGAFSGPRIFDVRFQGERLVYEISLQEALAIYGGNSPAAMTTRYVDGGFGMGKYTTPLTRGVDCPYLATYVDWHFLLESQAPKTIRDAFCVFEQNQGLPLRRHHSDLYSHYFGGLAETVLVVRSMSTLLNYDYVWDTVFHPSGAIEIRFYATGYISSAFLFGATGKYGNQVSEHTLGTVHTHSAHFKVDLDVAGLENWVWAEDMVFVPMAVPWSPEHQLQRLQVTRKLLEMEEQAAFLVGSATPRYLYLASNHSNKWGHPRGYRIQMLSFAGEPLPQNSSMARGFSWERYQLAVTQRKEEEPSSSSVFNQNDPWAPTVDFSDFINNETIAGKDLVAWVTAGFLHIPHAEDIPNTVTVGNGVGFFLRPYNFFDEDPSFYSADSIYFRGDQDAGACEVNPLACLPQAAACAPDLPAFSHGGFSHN
Design: gene AOC3

## CN [methylamine]
  Amplex Red H2O2 assay in adipose tissue homogenate; semicarbazide-sensitive, par: confirming that methylamine oxidation in hScAT is entirely due to PrAO
